{"source": "patent US10746637B2", "about": "“Aldehyde scavenging agent for retrieving elements from fixed tissue” (University of Houston System, priority 2013, dated 2020)", "key": {"GFAP": {"system": "GFAP", "test": "Microscope images of GFAP immunostaining after antigen retrieval (FIGS. 15-18)", "settings": "figure legends"}, "collagen IV": {"system": "collagen IV", "test": "Microscope images of Collagen IV immunostaining after antigen retrieval (FIGS. 13-23)", "settings": "figure legends"}}, "data": [{"smiles": "NNc1ccc([N+](=O)[O-])cc1[N+](=O)[O-]", "values": [{"measurement": "immunostaining of GFAP after antigen retrieval", "setting": "GFAP", "value": "enhanced immunostaining"}, {"measurement": "immunostaining of Collagen IV after antigen retrieval", "setting": "collagen IV", "value": "enhanced immunostaining"}]}]}
